The values below come from patent US12590088B2 (dated 2026).

The chains behind the UniProt entries cited, without tags or fusion partners. Where a name states a change or a piece, a line headed by the entry shows the natural chain unless it says otherwise.
UniProt P23458: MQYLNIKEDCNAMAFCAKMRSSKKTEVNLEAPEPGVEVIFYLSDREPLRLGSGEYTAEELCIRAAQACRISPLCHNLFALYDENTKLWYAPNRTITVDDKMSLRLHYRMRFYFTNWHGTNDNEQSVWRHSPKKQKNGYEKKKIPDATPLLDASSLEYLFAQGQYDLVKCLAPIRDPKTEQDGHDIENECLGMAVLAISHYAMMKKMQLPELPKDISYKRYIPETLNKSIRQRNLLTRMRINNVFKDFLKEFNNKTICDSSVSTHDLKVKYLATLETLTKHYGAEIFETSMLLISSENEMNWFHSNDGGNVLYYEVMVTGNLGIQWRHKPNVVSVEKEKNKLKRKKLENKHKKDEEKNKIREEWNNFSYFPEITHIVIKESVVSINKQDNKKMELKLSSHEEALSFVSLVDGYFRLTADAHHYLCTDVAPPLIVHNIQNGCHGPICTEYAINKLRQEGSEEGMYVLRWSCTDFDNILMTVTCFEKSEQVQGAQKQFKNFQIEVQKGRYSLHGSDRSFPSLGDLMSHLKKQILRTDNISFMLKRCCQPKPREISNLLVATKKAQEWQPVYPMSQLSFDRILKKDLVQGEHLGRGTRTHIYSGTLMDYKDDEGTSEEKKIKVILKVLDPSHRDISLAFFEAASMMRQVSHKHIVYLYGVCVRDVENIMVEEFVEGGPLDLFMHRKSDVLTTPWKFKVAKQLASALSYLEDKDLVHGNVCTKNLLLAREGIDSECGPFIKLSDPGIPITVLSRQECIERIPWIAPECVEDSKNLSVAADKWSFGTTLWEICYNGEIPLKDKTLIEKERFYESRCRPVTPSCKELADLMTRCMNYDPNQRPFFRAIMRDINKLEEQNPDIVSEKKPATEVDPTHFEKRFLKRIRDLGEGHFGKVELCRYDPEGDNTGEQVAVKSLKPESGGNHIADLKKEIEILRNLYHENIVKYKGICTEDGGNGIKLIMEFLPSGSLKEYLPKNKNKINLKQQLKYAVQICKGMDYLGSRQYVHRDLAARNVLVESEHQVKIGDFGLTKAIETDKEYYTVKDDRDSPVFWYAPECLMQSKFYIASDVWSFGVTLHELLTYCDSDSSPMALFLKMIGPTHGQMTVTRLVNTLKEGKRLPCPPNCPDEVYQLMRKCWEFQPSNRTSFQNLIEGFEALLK

The experiment concerns the target JAK1 (Homo sapiens, UniProt P23458). The experiment can be described thus: JAK1 IC50 measurement. The note with it: read-out: IC50(μM) JAK1.

The term IC50 denotes the point on the concentration scale where inhibition reaches its midpoint. Regarding “4-((3-((3-Chlorobenzyl)amino)cyclobutyl)amino)-1H-pyrrolo[2,3-b]pyridine-5-carboxamide [Compound 16d]”, the IC50 was determined as 0.0814 µM.
